Test results from ChEMBL document CHEMBL5252580, “Ionization and lipophilicity in nonpolar media mimicking the cell membrane interior” (Bioorg Med Chem, 2023).

Legend:
[1] = Ionization constant, pKa of the compound in water in presence of 20 to 27.4% acetonitrile cosolvent by potentiometric titration method; format: physicochemical; conditions: water with 20 to 27.4% acetonitrile cosolvent
[2] = Ionization constant, pKa of the compound in water in presence of 30 to 35% acetonitrile cosolvent by potentiometric titration method; format: physicochemical; conditions: water with 30 to 35% acetonitrile cosolvent

pKa [1]: 9.39
pKa [2]: 9.82
SMILES: NS(=O)(=O)c1cc2c(cc1Cl)NCNS2(=O)=O [HYDROCHLOROTHIAZIDE]
